US3962443A, “Antibacterial pharmaceutical compositions and processes for preparation thereof” (Dainippon Pharmaceutical Co., Ltd., priority 1972, dated 1976)

Experiments:
[1] = 7 days
[2] = in vivo; settings: mouse

For CCn1cc(C(=O)O)c(=O)c2cnc(N3CCNCC3)nc21 [Compound 1, 5,8-Dihydro-8-ethyl-2-(1-piperazinyl)-5-oxopyrido[2,3-d]pyrimidine-6-carboxylic acid], the “number of survival/the total number” value ([1]; iv, 500 mg/kg) was 6/6, the “number of survival/the total number” value ([1]; iv, 1000 mg/kg) was 0/6 and the “number of survival/the total number” value ([1]; po, 2000 mg/kg) was 6/6. For the same molecule, the “number of survival/the total number” value ([1]; po, 4000 mg/kg) was 6/6, the LD50 at 168 h ([2]; iv) was 700 mg/kg and the LD50 at 168 h ([2]; po) was greater than 4000 mg/kg.

Read-outs that look alike come from different tables or passages of the source.
